# scFv variants of Ab-95 (light chain) against a SARS-CoV-2 spike peptide

Source: Engelhart et al. 2022 (doi:10.1038/s41597-022-01779-4), MIT Lincoln Laboratory and A-Alpha Bio; data file from the FLAb repository.

Antigen: PDVDLGDISGINAS, a 14-residue peptide of the SARS-CoV-2 spike HR2 region.

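The starting antibody came from a phage panning campaign against this peptide. Variants in AAYL52 differ from the parent at up to three CDR positions; double and triple changes were sampled at random. Affinity was read by AlphaSeq, a pooled yeast mating assay with surface-displayed partners. Pairs that bind mate more often; barcode pairs of the diploids are counted by sequencing. Read counts were normalised to the haploid input and turned into Kd by a linear fit to BCL2-family pairs of known affinity, for each replicate. There are three technical replicates.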

The variants keep the heavy chain, the linker and the frameworks of Ab-95 (scFv order VH, a 15-residue (Gly4Ser)3 linker, VL).
VH: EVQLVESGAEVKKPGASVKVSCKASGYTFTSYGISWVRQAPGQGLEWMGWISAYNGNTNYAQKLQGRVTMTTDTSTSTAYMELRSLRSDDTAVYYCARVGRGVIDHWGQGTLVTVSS
VL: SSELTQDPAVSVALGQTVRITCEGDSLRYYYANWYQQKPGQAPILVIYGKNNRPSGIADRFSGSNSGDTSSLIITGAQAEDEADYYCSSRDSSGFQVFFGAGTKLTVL

Sequences are complete VL domains.
This list gathers variants with a substitution at F98 (VL, numbered from residue 1).
Kd is apparent (estimated from mating counts) and averaged on the log scale over replicates with a signal. Smaller is tighter.
An entry "nd" has no value in the source: the pair was not observed among the diploids in any replicate. This suggests poor binding but is not conclusive.
For reference, the parent read 200 nM as the reference entry and 180 nM as a member of this library.

* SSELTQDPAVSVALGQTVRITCEGDSLRYYAANWYQQKPGQAPILVIYGKTNRPSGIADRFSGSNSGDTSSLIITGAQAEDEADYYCSSRDSSGFQVEFGAGTKLTVL -> 50 nM (3 of 3 replicates)
* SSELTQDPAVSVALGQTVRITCEGDSLEYYYANWYQQKPGQAPILVIYGKNNRPSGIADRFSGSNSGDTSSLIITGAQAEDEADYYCSSRDNSGFQVKFGAGTKLTVL -> 1.9 µM (3 of 3 replicates)
* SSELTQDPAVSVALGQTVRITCEGHSLRYYYANWYQQKPGQAPILVIYGKNNRPSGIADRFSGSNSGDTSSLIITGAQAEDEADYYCSSRDSSGFSVQFGAGTKLTVL -> 410 nM (3 of 3 replicates)
* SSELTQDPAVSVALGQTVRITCEGDSLRYYYANWYQQKPGQAPILVIYGKNNRPSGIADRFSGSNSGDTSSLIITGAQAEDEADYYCSSRDSSNFGVTFGAGTKLTVL -> nd (0 of 3 replicates)
* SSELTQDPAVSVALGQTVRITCEGDSLRYYYANWYQQKPGQAPILVIYGWNNRPSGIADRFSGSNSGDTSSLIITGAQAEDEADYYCSSRDSSGFQVMFGAGTKLTVL -> 19 µM (1 of 3 replicates)
* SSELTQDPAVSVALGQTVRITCEGDSLRYYYANWYQQKPGQAPILVIYGKVNRPSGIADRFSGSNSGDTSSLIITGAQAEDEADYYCSSRDSSGFQVGFGAGTKLTVL -> nd (0 of 3 replicates)
* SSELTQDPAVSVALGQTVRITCEGDSLRYYYANWYQQKPGQAPILVIYRKNNRPSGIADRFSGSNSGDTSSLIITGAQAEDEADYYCSSRDSSGFQLVFGAGTKLTVL -> nd (0 of 3 replicates)
* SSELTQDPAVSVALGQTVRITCEMDSLRYYYANWYQQKPGQAPILVIYGKYNRPSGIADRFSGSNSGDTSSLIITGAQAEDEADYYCSSRDSSGFQVQFGAGTKLTVL -> 26 µM (1 of 3 replicates)
* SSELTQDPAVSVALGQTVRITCEGDSLRVYYANWYQQKPGQAPILVIYGKNNRPSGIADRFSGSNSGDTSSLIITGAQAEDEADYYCSNRDSSGFQVSFGAGTKLTVL -> nd (0 of 3 replicates)
* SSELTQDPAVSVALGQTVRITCEGDKLRYYKANWYQQKPGQAPILVIYGKNNRPSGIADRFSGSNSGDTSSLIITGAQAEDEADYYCSSRDSSGFQVMFGAGTKLTVL -> 2.3 µM (2 of 3 replicates)
* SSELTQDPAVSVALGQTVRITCEGDSSRYYYANWYQQKPGQAPILVIYGKNNRPSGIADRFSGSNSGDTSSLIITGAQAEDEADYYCSSFDSSGFQVRFGAGTKLTVL -> 3.0 µM (1 of 3 replicates)
* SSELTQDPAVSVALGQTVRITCEGDSLTYYYANWYQQKPGQAPILVIYGKNNRPSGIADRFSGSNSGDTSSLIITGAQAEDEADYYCSSRDSSGFAVHFGAGTKLTVL -> 420 nM (3 of 3 replicates)
* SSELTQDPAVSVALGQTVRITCEGDSLKYQYANWYQQKPGQAPILVIYGKNNRPSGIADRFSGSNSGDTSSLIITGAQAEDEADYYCSSRDSSGFQVAFGAGTKLTVL -> 9.1 nM (3 of 3 replicates)
* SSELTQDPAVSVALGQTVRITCEGDGLRYYYANWYQQKPGQAPILVIYGKNRRPSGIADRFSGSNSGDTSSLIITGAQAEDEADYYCSSRDSSGFQVQFGAGTKLTVL -> 2.4 µM (2 of 3 replicates)
* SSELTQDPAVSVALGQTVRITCEGDSLRYYYANWYQQKPGQAPILVIYGKNNRPNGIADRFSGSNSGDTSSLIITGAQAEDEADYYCSSRDSSGFIVLFGAGTKLTVL -> 910 nM (3 of 3 replicates)
* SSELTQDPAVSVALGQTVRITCWGDSLRYYYAVWYQQKPGQAPILVIYGKNNRPSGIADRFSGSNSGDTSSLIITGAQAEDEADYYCSSRDSSGFQVGFGAGTKLTVL -> nd (0 of 3 replicates)
* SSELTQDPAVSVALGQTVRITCEGDIKRYYYANWYQQKPGQAPILVIYGKNNRPSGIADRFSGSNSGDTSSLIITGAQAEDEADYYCSSRDSSGFQVMFGAGTKLTVL -> nd (0 of 3 replicates)
* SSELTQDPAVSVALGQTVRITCMGDSLRYYYANWYQQKPGQAPILVIYGKNNRPAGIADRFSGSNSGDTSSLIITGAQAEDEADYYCSSRDSSGFQVEFGAGTKLTVL -> 710 nM (3 of 3 replicates)
* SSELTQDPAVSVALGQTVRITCVGDSLRYYYANWYQQKPGQAPILVIYGKYNRPSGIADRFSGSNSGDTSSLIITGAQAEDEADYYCSSRDSSGFQVRFGAGTKLTVL -> 580 nM (2 of 3 replicates)
* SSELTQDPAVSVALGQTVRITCNGDSLRYYYANWYQQKPGQAPILVIYGKNNRPSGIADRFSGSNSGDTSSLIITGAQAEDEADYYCSSYDSSGFQVVFGAGTKLTVL -> 71 nM (3 of 3 replicates)
* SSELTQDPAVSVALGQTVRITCMGDSLRYYHANWYQQKPGQAPILVIYGKNNRPSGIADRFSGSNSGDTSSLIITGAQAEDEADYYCSSRDSSGFQVEFGAGTKLTVL -> 320 nM (3 of 3 replicates)
* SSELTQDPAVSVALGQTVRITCEGDSLRYYYANWYQQKPGQAPILVIYGKNNRPSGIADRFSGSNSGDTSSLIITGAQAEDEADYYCSSRDSMGFQVIFGAGTKLTVL -> 2.0 µM (3 of 3 replicates)
* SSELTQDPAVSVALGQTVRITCEGDSLRYYLANWYQQKPGQAPILVIYGKNNRPSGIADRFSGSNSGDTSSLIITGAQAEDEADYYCSSRDSSKFQVGFGAGTKLTVL -> 43 µM (2 of 3 replicates)
* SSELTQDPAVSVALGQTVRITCEGDSLRYYYANWYQQKPGQAPILVIYGKNNRPSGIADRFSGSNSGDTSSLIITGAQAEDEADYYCSSRDSSGFQPNFGAGTKLTVL -> 9.5 µM (3 of 3 replicates)
* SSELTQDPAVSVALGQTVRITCEGDSLRYYHANWYQQKPGQAPILVIYGKTNRPSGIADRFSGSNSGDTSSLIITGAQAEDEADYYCSSRDSSGFQVKFGAGTKLTVL -> nd (0 of 3 replicates)
* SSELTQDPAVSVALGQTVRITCEGDSLRYYYANWYQQKPGQAPILVIYGKNNRPSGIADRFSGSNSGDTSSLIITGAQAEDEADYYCSIRDSSGFQVTFGAGTKLTVL -> 12 µM (3 of 3 replicates)

3 of these entries, quoted again:

* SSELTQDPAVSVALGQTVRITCMGDSLRYYYANWYQQKPGQAPILVIYGKNNRPAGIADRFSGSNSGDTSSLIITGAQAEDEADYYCSSRDSSGFQVEFGAGTKLTVL = 710 nM (3 of 3 replicates)
* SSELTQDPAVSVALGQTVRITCVGDSLRYYYANWYQQKPGQAPILVIYGKYNRPSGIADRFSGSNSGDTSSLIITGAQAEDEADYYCSSRDSSGFQVRFGAGTKLTVL = 580 nM (2 of 3 replicates)
* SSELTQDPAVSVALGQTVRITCEGHSLRYYYANWYQQKPGQAPILVIYGKNNRPSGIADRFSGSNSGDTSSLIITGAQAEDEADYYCSSRDSSGFSVQFGAGTKLTVL = 410 nM (3 of 3 replicates)

Three control strains display no target. For library AAYL52, 28% of the pairings with them gave a signal, with a median of 8.2 µM and one signal in twenty below 800 nM, so weak values seen in few replicates may be background.